Laboratory results as given in PubChem BioAssay (NCI).
The entries are a selection whose mix differs from that of the whole data set. Some salts or complexes appear as unconnected parts, following the source record. Activity calls are given as the source filed them. Rule as the data show it: active = growth inhibition above about 70%; inactive = the rest.

Assays:
[1] = NCI Yeast Anticancer Drug Screen. Data for the rad50 strain (AID 155);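 also: 0% = growth of vehicle-only cultures of the same strain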; details: S. cerevisiae rad50 strain growth inhibition; at 50.0 µM; active compounds read high
[2] = NCI Yeast Anticancer Drug Screen. Data for the mec2-1 strain (AID 157); details: S. cerevisiae mec2-1 strain, at 50.0 µM, active compounds read high
[3] = NCI Yeast Anticancer Drug Screen. Data for the sgs1 mgt1 strain (AID 161);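 also: 0% = growth of cultures given vehicle only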; details: S. cerevisiae sgs1 mgt1 strain, at 50.0 µM, active compounds read high
[4] = NCI Yeast Anticancer Drug Screen. Data for the cln2 rad14 strain (AID 165);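 also: 0% = growth equal to vehicle treated cultures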; details: S. cerevisiae cln2 rad14 strain, at 50.0 µM, active compounds read high
[5] = NCI Yeast Anticancer Drug Screen. Data for the bub3 strain (AID 167); details: S. cerevisiae bub3 mutant strain, at 50.0 µM, active compounds read high
[6] = NCI Yeast Anticancer Drug Screen. Data for the mlh1 rad18 strain (AID 175); details: S. cerevisiae mlh1 rad18 strain growth inhibition; at 50.0 µM; active compounds read high

Measured: growth inhibition

Cc1cc2ccccc2cc1C.O=[N+]([O-])c1cc([N+](=O)[O-])c(O)c([N+](=O)[O-])c1
inactive: [1] 24.1% | [2] 3.5% | [3] 24.6% | [4] 5.5% | [5] 3.2% | [6] 13.7%

CC(C)CC(CC(C)C)NCCCO.O=[N+]([O-])c1cc([N+](=O)[O-])c(O)c([N+](=O)[O-])c1
inactive: [1] 26.8% | [2] 0.65% | [3] 20.2% | [4] -22.8% | [5] -1.65% | [6] -11.7%

C[N+](C)([O-])C1CCCCCCCC1.O=[N+]([O-])c1cc([N+](=O)[O-])c(O)c([N+](=O)[O-])c1
inactive: [1] 37.1% | [2] 12.1% | [3] 31.9% | [4] 18.1% | [5] -3.6% | [6] 11.3%

CCC(CO)NC(C)C.O=[N+]([O-])c1cc([N+](=O)[O-])c(O)c([N+](=O)[O-])c1
inactive: [1] -5.95% | [2] -4.05% | [3] -0.85% | [4] -25.5% | [5] -10.3% | [6] -3.7%

ClCCN(CCCl)c1cccc(CN2CCCC2)c1.O=[N+]([O-])c1cc([N+](=O)[O-])c(O)c([N+](=O)[O-])c1
inactive: [1] 19.2% | [2] 3.9% | [3] 38.9% | [4] 38% | [5] 37.5% | [6] 48.8%

Cc1ccc2ccc(C)c(C)c2c1.O=[N+]([O-])c1cc([N+](=O)[O-])c(O)c([N+](=O)[O-])c1O
inactive: [1] -1.95% | [2] -30.4% | [3] -0.05% | [4] -10.9% | [5] -8.05% | [6] 1.85%

[C-]#[O+].[CH2-]C.[Fe+6].[c-]1[c-][c-][cH-][c-]1.c1ccc([PH+](c2ccccc2)c2ccccc2)cc1
inactive: [1] -7% | [2] 25.9% | [3] 55.1% | [4] 35% | [5] -4.1% | [6] 31.2%

O=C1c2cc([N+](=O)[O-])cc(Br)c2-c2c1cc([N+](=O)[O-])cc2[N+](=O)[O-].c1ccccc1
active: [1] 96% | [2] 98.3% | [3] 97.8% | [4] 95.3% | [5] 95.3% | [6] 98%

CC(C)CCCC(C)CN(C)CC(C)O.O=[N+]([O-])c1cc([N+](=O)[O-])c(O)c([N+](=O)[O-])c1
inactive: [1] 38.1% | [2] 2.2% | [3] 39.5% | [4] -16.7% | [5] 2.35% | [6] 17.6%

Cc1ccc2ccc3ccc(C)cc3c2c1.O=C1c2cc([N+](=O)[O-])ccc2-c2c1cc([N+](=O)[O-])cc2[N+](=O)[O-]
inactive: [1] 10.5% | [2] 10% | [3] 7.15% | [4] -17.1% | [5] -4.4% | [6] 36.6%

COC(=O)/C(=C\c1ccc(Cl)cc1)CN1CCCCC1.O=[N+]([O-])c1cc([N+](=O)[O-])c(O)c([N+](=O)[O-])c1
inactive: [1] 24.5% | [2] -17.1% | [3] 12.3% | [4] -37.5% | [5] -1.2% | [6] -4.65%

O=[N+]([O-])c1cc([N+](=O)[O-])c(O)c([N+](=O)[O-])c1.OC1CC2CCC(C1)N2
inactive: [1] 4% | [2] -1.1% | [3] 5.3% | [4] -38.5% | [5] -12.8% | [6] 2.7%

C[N+]1(CCC[N+]2(C)CCCCCC2)CCCCCC1.O=[N+]([O-])c1cc([N+](=O)[O-])c(O)c([N+](=O)[O-])c1
inactive: [1] -11.4% | [2] -13.3% | [3] -17.6% | [4] -25.1% | [5] -8.05% | [6] -2.4%

CC(C)OP(C)(=O)O.[V]
inactive: [1] 2.95% | [2] 0.6% | [3] 2.25% | [4] -24.9% | [5] -20.1% | [6] 9.35%

CC(C)OP(C)(=O)O.[Tm]
inactive: [1] -4.6% | [2] 4.8% | [3] -0.75% | [4] -23.6% | [5] 2.15% | [6] 3.95%

[C-]#N.[PtH+].c1ccc([PH+](c2ccccc2)c2ccccc2)cc1.c1ccc([PH+](c2ccccc2)c2ccccc2)cc1
inactive: [1] -0.65% | [2] 4.1% | [3] -16.8% | [4] -7.8% | [5] -3% | [6] -25.6%

Cc1cc(C)c2c(ccc3cc(C)cc(C)c32)c1.O=[N+]([O-])c1cc([N+](=O)[O-])cc([N+](=O)[O-])c1
active: [1] 96% | [2] 99% | [3] 98.7% | [4] 81% | [5] 98.5% | [6] 98%

Cc1ccc(Nc2c([N+](=O)[O-])cc([N+](=O)[O-])cc2[N+](=O)[O-])c(C)c1
active: [1] 94.6% | [2] 96.2% | [3] 96.3% | [4] 90.4% | [5] 95.4% | [6] 95.5%

CC(C)OP(C)(=O)O.[Tl]
inactive: [1] 5.85% | [2] -0.05% | [3] 2.35% | [4] -10.2% | [5] -5.85% | [6] 4.65%

CCCC[N+](CCCC)(CCCC)CCCC.O=[N+]([O-])c1cc([N+](=O)[O-])c([O-])c([N+](=O)[O-])c1
inactive: [1] -16.6% | [2] -0.75% | [3] 5.4% | [4] 17.4% | [5] -1% | [6] 6.15%

CC(CO)NC1CCCC1.O=[N+]([O-])c1cc([N+](=O)[O-])c(O)c([N+](=O)[O-])c1
inactive: [1] 8.55% | [2] 1.5% | [3] 8% | [4] -20.2% | [5] -8.5% | [6] 4.2%

CC1CN(C)CC1C.O=[N+]([O-])c1cc([N+](=O)[O-])c(O)c([N+](=O)[O-])c1
inactive: [1] 11.5% | [2] 3.8% | [3] 4.8% | [4] 2.15% | [5] 34.2% | [6] 12.8%

CC1=CC2OC3CC4OC(=O)/C=C/C=C/C(=O)OCCC(C)C(O)C(=O)OCC2(CC1=O)C4(C)C31CO1 (stereo not given)
active: [1] 92.5% | [2] 93.3% | [3] 93.2% | [4] 91.2% | [5] 92% | [6] 92.3%

Cc1cccc(C)n1.O=[N+]([O-])c1cc([N+](=O)[O-])c(O)c([N+](=O)[O-])c1
inactive: [1] 17.5% | [2] -12.4% | [3] 9.9% | [4] 11.9% | [5] 10.8% | [6] 9.25%

[C-]#[O+].[Co].[c-]1[c-][c-][cH-][c-]1.c1ccc([PH+](c2ccccc2)c2ccccc2)cc1
inactive: [1] 1.15% | [2] 5.65% | [3] -8.5% | [4] 19.1% | [5] 12.8% | [6] -6.5%

[N-]=[N+]=N.[N-]=[N+]=N.[Pt+2].c1ccc([PH+](c2ccccc2)c2ccccc2)cc1.c1ccc([PH+](c2ccccc2)c2ccccc2)cc1
inactive: [1] 28.7% | [2] 15.4% | [3] 16.5% | [4] -48.7% | [5] 11.2% | [6] 32.2%

[C-]#[O+].[C-]#[O+].[C-]#[O+].[C-]#[O+].[Hg].[W].[W].[c-]1[c-][c-][cH-][c-]1.[c-]1[c-][c-][cH-][c-]1.c1ccc(O[PH+](Oc2ccccc2)Oc2ccccc2)cc1.c1ccc(O[PH+](Oc2ccccc2)Oc2ccccc2)cc1
inactive: [1] -9% | [2] -5.5% | [3] -2.1% | [4] 0.45% | [5] 3.35% | [6] -17.1%

CC(C)CCC(O)(C(=O)OCCN1CCCC1)c1ccccc1 (stereo not given)
inactive: [1] 1.8% | [2] -4.6% | [3] 8.8% | [4] -10% | [5] -5.3% | [6] 3.55%

CCN(CC)CCOC(=O)C(O)(c1cccc(C)c1C)C1CCCCC1 (stereo not given)
inactive: [1] 0.8% | [2] 2.1% | [3] -28.9% | [4] -18.8% | [5] -0.25% | [6] 4.35%

CC(C)=C(OP(C)(I)(N(C)C)N(C)C)C(C)(C)C(=O)N(C)C
inactive: [1] 35.9% | [2] -9.35% | [3] 34.5% | [4] -3.95% | [5] 1.5% | [6] 8.85%

O=C(OCC12COP(=O)(OC1)OC2)C(C(F)(F)F)C(F)(F)F
inactive: [1] -3.55% | [2] -28.9% | [3] -18.6% | [4] 16.4% | [5] 18.6% | [6] -11.7%

CC1C(C)[N+]1(C)C.O=[N+]([O-])c1cc([N+](=O)[O-])c(S(=O)(=O)[O-])c([N+](=O)[O-])c1
inactive: [1] 27.6% | [2] 13.7% | [3] 54.9% | [4] 27.4% | [5] 22.9% | [6] 13.2%

N1=C(c2nnc(-c3nn[nH]n3)nn2)NNN1
inactive: [1] -7.65% | [2] -31.8% | [3] -7.55% | [4] 19.8% | [5] -28.8% | [6] 12.6%

C/C1=C\C(=O)OCC23CCC4(C)OC4C2OC2CC(OC(=O)/C=C/C=C/C(=O)OCC1)C3(C)C21CO1 (stereo not given)
active: [1] 92.2% | [2] 93.3% | [3] 92.7% | [4] 91.5% | [5] 91.7% | [6] 91.1%

CCN(CCO)CCCO.O=[N+]([O-])c1cc([N+](=O)[O-])c(O)c([N+](=O)[O-])c1
inactive: [1] 24.4% | [2] 3.8% | [3] 16.4% | [4] 7.25% | [5] 2.1% | [6] 16.9%
